Our source for the response values is PubChem BioAssay AID504577 (NMMLSC, 2011).

The entries are a selection whose mix differs from that of the whole data set. Active and inactive are the calls of the source. Cut-off read from the data, not from the text of the source: active = response mostly above about 7.3% (no sharp cut-off); inactive = mostly below about 5.4%.

The test in a line: regulators of yeast V-ATPase proton pumping, primary screen, pHLuorin cytosolic pH fluorescence (AID 504577). The conditions noted are these: S. cerevisiae, at 10 µM, active compounds read high.
As for `COc1ccccc1OP(C)(=O)Nc1cccc(Br)c1` (stereo unspecified), the response was inactive: -3.28%.

For the compound `Cc1nc2ccc3ccccc3c2s1.O=[N+]([O-])c1cc([N+](=O)[O-])c(O)c([N+](=O)[O-])c1`, the response is inactive: 2.58%.

For `O=[N+]([O-])c1cc([N+](=O)[O-])c(-c2cnn(-c3ccccc3)c2)c([N+](=O)[O-])c1`, the response was inactive: 1.34%.

With `O=[N+]([O-])c1cc([N+](=O)[O-])c(-n2nnc3ccccc32)c([N+](=O)[O-])c1`, the response is inactive: -0.98%.

As to `CP(=O)(Nc1ccc(SC(F)(F)F)cc1)Oc1ccccc1` (stereo unspecified), the response was inactive: -0.39%.

As for `CCCOc1ccc(NP(C)(=O)Oc2ccc(Cl)cc2)cc1` (stereo unspecified), the response was inactive: 0.61%.

With `COc1ccccc1OP(C)(=O)Nc1c(C)cccc1C` (stereo unspecified), the response is inactive: -2.33%.

For `CN1CCCCC1COC(=O)C1(O)c2ccccc2CCc2ccccc21` (stereo unspecified), the response was inactive: -5.37%.

For the compound `CCOC(=O)C(CC)C1=NC(C)(C)Cc2ccccc21.O=[N+]([O-])c1cc([N+](=O)[O-])c(O)c([N+](=O)[O-])c1` (stereo unspecified), the response was inactive: 0.88%.

For `O=[N+]([O-])c1cc([N+](=O)[O-])c(Nc2nnnn2CCO)c([N+](=O)[O-])c1`, the response was inactive: -1%.

In the case of `CC1=C2N=C(C=C3N=C(C(C)=C4[N-][C@@](C)([C@@H]5N=C1[C@](C)(CCC(=O)NC[C@@H](C)OP(=O)([O-])O[C@H]1[C@@H](O)[C@@H](n6cnc7cc(C)c(C)cc76)O[C@@H]1CO)[C@H]5CC(N)=O)[C@@](C)(CC(N)=O)[C@@H]4CCC(N)=O)[C@@](C)(CC(N)=O)[C@@H]3CCC(N)=O)C(C)(C)[C@@H]2CCC(N)=O.[C-]#N.[Co+3]`, the response is inactive: 0.43%.

In the case of `COc1ccccc1OP(C)(=O)Nc1ccccc1` (stereo unspecified), the response was inactive: -1.81%.

On to `CP(=O)(Nc1ccccc1Br)Oc1ccccc1` (stereo unspecified), for which the response is inactive: 0.54%.

Consider `CP(=S)(Nn1cnnc1)Oc1ccccc1` (stereo unspecified), for which the response is inactive: 2.55%.

Turning to `CP(=O)(Nc1ccccn1)Oc1ccc(Cl)cc1` (stereo unspecified), the response was inactive: -2.83%.

Consider `CCOP(C)(=S)SCC(=O)NC(C)C(=O)O` (stereo unspecified), for which the response was inactive: 6.07%.

`CCOC(=O)c1ccc(NP(C)(=O)Oc2ccc(OC)cc2)cc1` (stereo unspecified): the response was inactive: -4.2%.

With `O=[N+]([O-])c1cc([N+](=O)[O-])c(O)c([N+](=O)[O-])c1.c1ccc(Oc2ccncc2)cc1`, the response is inactive: -4.47%.

As to `Cc1cc(C)cc(OP(C)(=O)Nc2ccc(SC(F)(F)F)cc2)c1` (stereo unspecified), the response was inactive: -0.76%.

Take `CCc1ccc(OP(C)(=O)N2CCN(c3ccc([N+](=O)[O-])cc3)CC2)cc1` (stereo unspecified): the response was inactive: 3.23%.

In the case of `CP(=O)(NC(=O)Nc1ccccc1)Oc1ccccc1` (stereo unspecified), the response was inactive: 3.33%.

Regarding `CP(=O)(Oc1ccccc1)OC(c1ccccc1)C(F)(F)F` (stereo unspecified), the response is inactive: 0.6%.

On to `Cc1cccc(C)c1OP(C)(=O)Nc1ccc(SC(F)(F)F)cc1` (stereo unspecified), for which the response is inactive: 0.72%.

In the case of `Cc1ccc(Nc2c([N+](=O)[O-])cc([N+](=O)[O-])cc2[N+](=O)[O-])cc1`, the response was inactive: 3.49%.

For `CP(=O)(Nc1ccc(SC(F)(F)F)cc1)Oc1ccc(Cl)cc1` (stereo unspecified), the response was inactive: 3.67%.

For `CCN(CC)CCCOC(=O)C(O)(c1ccccc1)c1ccccc1`, the response is inactive: 2.25%.

For the compound `COc1ccc(OP(C)(=O)Nc2cccc(F)c2)cc1` (stereo unspecified), the response was inactive: 3.56%.

With `COc1ccccc1OP(C)(=O)Nc1cc(Cl)ccc1C` (stereo unspecified), the response was inactive: -0.1%.

For the compound `Cc1cc(C)cc(OP(C)(N)=O)c1` (stereo unspecified), the response is inactive: -0.39%.

As to `CCOC(=O)c1ccc(NP(C)(=O)Oc2ccccc2)cc1` (stereo unspecified), the response was inactive: 0.41%.

`Cc1ccc(NP(C)(=O)Oc2ccccc2)c(C)c1` (stereo unspecified): the response is inactive: 3.9%.

Consider `COc1ccccc1OP(C)(=O)Nc1ccc(C)cc1` (stereo unspecified), for which the response was inactive: 2.52%.

`Cc1cccc(C)c1OP(C)(N)=O` (stereo unspecified): the response is inactive: -0.84%.

On to `CC(C)(C)c1ccc(OP(C)(=O)Nc2ccc(SC(F)(F)F)cc2)cc1` (stereo unspecified), for which the response is inactive: 1.85%.

As for `O=[N+]([O-])c1ccc2c(c1)C=Nc1ccccc1O2`, the response was inactive: -0.12%.

In the case of `O=[N+]([O-])c1cc([N+](=O)[O-])c(Nc2cccnc2)c([N+](=O)[O-])c1`, the response was inactive: -1.26%.
